In ChEMBL document CHEMBL3085664, “Structure-activity relationship of imidazopyridinium analogues as antagonists of neuropeptide s receptor” (J Med Chem, 2013):

Biological target: T1, Neuropeptide S receptor (Homo sapiens) (UniProt Q6W5P4)
T1 sequence (whole entry): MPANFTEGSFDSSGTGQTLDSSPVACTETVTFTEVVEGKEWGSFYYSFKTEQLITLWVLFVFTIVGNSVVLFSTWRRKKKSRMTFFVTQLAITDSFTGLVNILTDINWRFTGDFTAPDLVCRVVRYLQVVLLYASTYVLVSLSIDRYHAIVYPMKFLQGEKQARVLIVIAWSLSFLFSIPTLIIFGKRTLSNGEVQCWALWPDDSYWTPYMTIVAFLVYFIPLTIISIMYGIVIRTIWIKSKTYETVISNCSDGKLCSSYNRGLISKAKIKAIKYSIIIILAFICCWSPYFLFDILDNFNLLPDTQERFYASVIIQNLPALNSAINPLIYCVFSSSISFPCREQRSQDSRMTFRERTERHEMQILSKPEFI
Test: Antagonist activity at neuropeptide S receptor (unknown origin) expressed in CHO cells assessed as inhibition of NPS-induced ERK activation at 50 uM after 20 mins by HTRF assay relative to control
Format: cell-based

SMILES | inhibition
Cc1nc2ccccn2c1P(=O)(c1ccccc1)c1ccccc1 | < 50%
c1ccc(P(c2ccccc2)c2cnc3ccccn23)cc1 | < 50%
Cc1nc2ccccn2c1C(O)(c1ccccc1)c1ccccc1 | < 50%
Cc1c(C(O)(c2ccccc2)c2ccccc2)n2ccccc2[n+]1C.O=C([O-])C(F)(F)F | < 50%
O=P(c1ccccc1)(c1ccccc1)c1cnc2ccccn12 | < 50%
OC(c1ccccc1)(c1ccccc1)c1cnc2ccccn12 | < 50%
C[n+]1cc(C(O)(c2ccccc2)c2ccccc2)n2ccccc21.O=C([O-])C(F)(F)F | < 50%
